The chains behind the UniProt entries cited, without tags or fusion partners.
UniProt P10275, whole entry T878A: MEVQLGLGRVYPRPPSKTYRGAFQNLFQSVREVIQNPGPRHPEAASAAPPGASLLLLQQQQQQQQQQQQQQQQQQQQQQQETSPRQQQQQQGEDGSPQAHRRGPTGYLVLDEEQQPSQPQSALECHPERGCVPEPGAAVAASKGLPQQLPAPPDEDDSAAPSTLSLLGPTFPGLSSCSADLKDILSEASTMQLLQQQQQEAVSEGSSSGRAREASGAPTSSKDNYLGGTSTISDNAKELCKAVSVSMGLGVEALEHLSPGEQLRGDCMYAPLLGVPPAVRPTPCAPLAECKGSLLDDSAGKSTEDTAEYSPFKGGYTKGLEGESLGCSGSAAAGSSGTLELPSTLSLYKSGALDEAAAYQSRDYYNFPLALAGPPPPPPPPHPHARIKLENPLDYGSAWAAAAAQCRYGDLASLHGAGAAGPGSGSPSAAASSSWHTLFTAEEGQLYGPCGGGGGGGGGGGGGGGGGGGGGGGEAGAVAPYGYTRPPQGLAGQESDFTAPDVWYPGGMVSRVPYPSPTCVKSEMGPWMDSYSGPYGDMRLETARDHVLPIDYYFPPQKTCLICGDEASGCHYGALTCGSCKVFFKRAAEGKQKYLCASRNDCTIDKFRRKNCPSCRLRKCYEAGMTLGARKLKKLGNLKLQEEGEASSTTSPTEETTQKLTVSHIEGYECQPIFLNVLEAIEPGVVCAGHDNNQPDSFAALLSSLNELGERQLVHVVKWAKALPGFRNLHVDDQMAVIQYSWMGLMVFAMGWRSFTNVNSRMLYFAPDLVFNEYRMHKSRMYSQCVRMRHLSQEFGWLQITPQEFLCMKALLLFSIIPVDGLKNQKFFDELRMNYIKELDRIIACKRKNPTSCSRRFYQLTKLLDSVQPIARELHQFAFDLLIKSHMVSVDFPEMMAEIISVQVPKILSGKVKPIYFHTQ

In patent US5135849A, “In-vitro methods for identifying compositions which are agonists and antagonists of androgens” (priority 1989, dated 1992):

Biological target: androgen receptor (Homo sapiens, UniProt P10275, T878A)
Experiment: Competition for androgen receptors with 3H-testosterone in LNCaP cytosol-nuclear extracts (RBA)

C[C@]1(O)CC[C@H]2[C@@H]3CCC4=CC(=O)CCC4=C3C=C[C@@]21C [R1881, 17β-hydroxy-17α-methyl-estra-4,9,11-trien-3-one]
RBA (relative binding affinity to the androgen receptor): 200
